Measured values: US11524048B2, “HMGB1 antagonist treatment of severe sepsis” (THE FEINSTEIN INSTITUTES FOR MEDICAL RESEARCH, priority 2019, dated 2022)

Test system: HMGB1-induced TNF release, human primary macrophages
Experiment: HMGB1-induced TNF release in human primary macrophages (ELISA)
Format: cell-based

In the case of `NC(=O)N(CCC(=O)O)NC(=O)[C@H](CO)NC(=O)[C@H](CO)NC(=O)N(N)Cc1ccccc1` [K883], the IC50 (Homo sapiens, Primary macrophage, 16 h, read-out: IC50, inhibition of HMGB1-induced TNF release) is reported as 1000 nM and the “inhibition of HMGB1-induced TNF secretion” value (human macrophages, FIG. 17A) is reported as “causes inhibition”.
